Laboratory results taken from patent US20160032398A1, “METHODS FOR TREATING CANCER” (COMBIMMUNE, INC., priority 2013, published 2016).

How the values were obtained:
CD137 (TNFRSF9) = test: CD137 expression on tumor-infiltrating leukocytes by FACS (Example 11); assay type: in vivo, mice; details: EGFR-expressing B16 tumors, 48 hours after cetuximab; vs control tumors treated with cetuximab; FIG. 14
Procedure: (§1) In a separate experiment, three cohorts of mice were inoculated with B16 melanoma tumors. One group had control tumors, one group had tumors that expressed human EGFR, and the third group had tumors secreting the chemoattractant chemerin, mimicking intratumoral injection or treatment with chemerin. Each group comprised three mice. Tumors were allowed to grow until Day 9. […] Forty-eight hours after the single injection (Day 11), the tumors from all three groups were analyzed for infiltrating NK and T cells, as well as CD137 (TNFRSF9) expression.

B16 melanoma tumors [1] = test: Control, EGFR-expressing and chemerin-secreting B16 tumors: tumor size (Example 11); assay type: in vivo, mice; details: EGFR-expressing B16 tumors treated with cetuximab; Day 11; vs control tumors (not expressing EGFR) treated with cetuximab; FIG. 16
Procedure: as §1
The same tumors from the three groups were analyzed for tumor size (mm^2), a surrogate for clinical outcomes and survival, at pretreatment ([…]) and post-treatment (Day 11).

B16 melanoma tumors [2] = test: Control, EGFR-expressing and chemerin-secreting B16 tumors: tumor-infiltrating leukocytes by FACS (Example 11); assay type: in vivo, mice; details: FIG. 13A
Procedure: as §1

CD137 = test: In vitro TGS co-culture of splenocytes and EGFR-expressing B16 melanoma cells: CD137+ cells; assay type: cell-based, C57BL6 mice; details: Day 7 of co-culture, vs control without cetuximab
Procedure: In order to determine if the two gene score (TGS) can be evaluated in vitro, a co-culture assay system that utilizes the main components from the tumor microenvironment, namely tumor cells and immune cells, was developed. EGFR-expressing B16 melanoma cells were cultured with whole splenocytes isolated from C57BL6 mice. […] The rational for the experimental design was that the antibody enables and activates NK cells and other cells involved in antibody-dependent cell-mediated cytotoxicity (ADCC) to mediate killing of the tumor cells. The activated immune cells express CD137.

How did the “CD137 expression on total tumor-infiltrating leukocytes (FACS)” value (CD137 (TNFRSF9)) turn out when “cetuximab: therapeutic anti-human EGFR antibody” was run?
The value was “increase in CD137 expression”.

What about the tumor size (B16 melanoma tumors [1]) of the same substance?
The tumor size was “significantly smaller than control tumors”.

What about the “percentage of tumor-infiltrating leukocytes (TIL)” value (B16 melanoma tumors [2]; B16 tumors without EGFR antigen (non-responder), cetuximab Day 9, analysed Day 11) of the same substance?
The value was “significantly lower percentage of tumor-infiltrating leukocytes”.

And the “total tumor-infiltrating leukocytes (TIL)” value (B16 melanoma tumors [2]; EGFR-expressing B16 tumors, cetuximab 200 ug i.p. Day 9, analysed Day 11)?
Its value is “increase in total tumor-infiltrating leukocytes”.

What about the “percentage of CD45+ leukocytes that were CD137+” value (CD137; FIG. 22A) of the same substance?
The value was “significantly increased”.

What about the “percentage of NK cells that were CD137+” value (CD137; FIG. 22B) of the same substance?
The value was “significantly increased”.
